Values quoted from earlier work, collected in article PMC6796870, “A two-step lineage reprogramming strategy to generate functionally competent human hepatocytes from fibroblasts” (Cell Research, 2019).

Settings: Table S9; ref 1,2 (Chen, M. et al. 2011); cited from earlier work

For Maraviroc, the Label is listed as “DILI concern by FDA”.
